From patent US20160139120A1 (The Trustees of Columbia University in the City of New York, priority 2013, published 2016)

Columns and labels:
C1q [1] = molecular target: T1, C1q (Homo sapiens, UniProt P02745+P02746+P02747); experiment: ELISA-like / blot assays of direct C1q binding to immobilized sRAGE
T1 construct: purchased Quidel A400
Experimental: MaxiSorp plates were coated with 20 μg/ml sRAGE. […] Association and dissociation signals were monitored by surface plasmon resonance. […] Results in A, B and E were mean±SD of three independent experiments. *p<0.01 as compared to BSA. Results in C and D were representatives of three independent experiments. (F) MaxiSorp plate coating and blocking were similarly performed as in FIG. 1.
96-well NUNC MaxiSorp plates were coated with 100 μl of 0-50 μg/ml of sRAGE in PBS at 4° C. overnight; remaining binding sites were blocked with 2% BSA in PBS for 2 h at room temperature. […] The final peroxidase activity was monitored at 492 nm with o-phenylenediamine dihydrochloride and hydrogen peroxide as substrates. A distinct dot blot-like assay was performed on the surface of a nitrocellulose membrane as follows: 1 μl of sRAGE in PBS was spotted onto a dry nitrocellulose membrane; after the membrane was air-dried, it was washed thoroughly with PBS. Remaining binding sites were blocked with 5% non-fat milk in PBS. […] ECL Western blot detection kit was used to visualize the binding.

complement system = experiment: Complement activation assay (C3a formation in human serum); type: biochemical; conditions: for complement activation activity relative to Avastin / human IgG1: immobilized proteins, FIG. 1
Experimental: (B) 2 μg of sRAGE (from insect cells) and 1 mM of phenolphthalein bisphosphate were incubated in 20 μl of fresh human serum for 1 hour at 37° C. in a 5% CO2 incubator. Complement activation was monitored as C3a formation from proteolytic cleavage of C3 by ELISA kit.
B. 2 μg of recombinant human Mac-1 (R&D Systems) and 0.4 μg of sRAGE from HEK293 cells were incubated in solution together and separately in 3 μl of PBS at 25° C. for 30 min; control condition was 3 μl of PBS only, then 7 μl of human serum was added to start 1 hour incubation at 37° C. C3a was assayed by ELISA kit.
C3a levels in fresh human serum (A), C1q-depleted fresh human serum (B) and Mg-EGTA (5 mM Mg Cl2 and 10 mM EGTA) treated fresh human serum (C) were assayed after 1 h incubation at 37° C. in a 96-well NUNC MaxiSorp plate coated with 20 μg/ml of human sRAGE. (D) Complement activation by a fusion protein rhsRAGE/Fc and its Fc fragment. Two different forms of each protein were tested, one was immobilized and the other was free molecule in serum (dissolved). For immobilized forms, 96-well MaxiSorp plate was coated with 50 μg/ml of each protein and blocked with BSA. Complement activation was performed as in (A). For soluble forms of these two proteins, a mixture of 30 μl of fresh human serum and 10 μl of either rhsRAGE/Fc or Fc (200 μg/ml) was incubated for 1 h at 37° C. in a 5% CO2 incubator. Results in (A), (B) and (C) were mean±SD of four independent experiments each performed in triplicate. Results in (D) were mean±SD of three independent experiments. *p<0.01 as compared to BSA.
96-well NUNC MaxiSorp plate was coated with 100 μl of 20 μg/ml of sRAGE in PBS at 4° C. overnight; remaining binding sites were blocked with 2% BSA in PBS for 2 h at room temperature. Complement activation was initiated with incubation of normal human serum (20 μl) or C1q-depleted human serum in the plate at 37° C. in a 5% CO2 incubator. After 1 h incubation, C3a levels in the human serum were determined as a marker of complement activation with human C3a EIA kit according to the manufacturer's instructions.

Escherichia coli = conditions: wild type mice treated; cited from earlier work
C1q [2] = molecular target: T1, C1q; experiment: Pull-down of sRAGE by immobilized C1q; type: binding; conditions: for pull-down of sRAGE by immobilized C1q: PBS; for C1q-sRAGE binding at reduced ionic strength: PBS diluted four-times (¼ PBS)
Experimental: Pull-down of sRAGE by immobilized BSA and C1q was tested in two different solutions, one was physiological solution—PBS and the other was four-times diluted physiological solution—¼ PBS. […] A representative of three independent experiments was shown.
(§1) After blocking with 2% BSA in PBS, the plate was incubated with 0.1 ml sRAGE (0.1 mg/ml) in 2% BSA in PBS at room temperature for 1 h. After the wells were washed quickly three times with cold PBS, NuPAGE sample buffer was used to denature and collect sRAGE from the plate for Western blot detection. […] The plate was cooled down on ice for 10 min and washed quickly three-times with cold ½ PBS. SDS-NuPAGE sample buffer was used to dissolve proteins in the plate and used for electrophoresis and Western blots of C1q and sRAGE. Stripping of Western blot membranes was performed with buffer from Pierce according to the manufacturer's instructions.

[3] = mouse, in vivo; cited from earlier work
Mac-1 = molecular target: T2, Mac-1 (Homo sapiens, UniProt P05107+P11215); experiment: Pull-down of sRAGE and C1q by immobilized Mac-1; type: binding; conditions: ½ PBS
T2 construct: purchased R&D Systems 4047-AM
Experimental: Western blots were used to detect the pull-down amount of sRAGE and C1q. […] Result was a representative of three independent experiments.
as §1

## denatured and reduced sRAGE: sRAGE denatured and reduced, tested in a Western blot-like procedure
C1q [1]; denatured and reduced protein, data not shown
  C1q binding in Western blot-like procedure: C1q binding abilities were lost

## rhsRAGE/Fc: chimeric protein combining extracellular domain of human RAGE and Fc region of human IgG1 (R&D Systems 1145-RG)
Complement system; free molecule in fresh human serum (FIG. 14D)
  complement activation by protein in solution (dissolved): also activated complement
Complement system; plate coated 50 μg/ml, fresh human serum (FIG. 14D)
  complement activation by immobilized protein (C3a): activate the classical complement pathway

## sRAGE: human sRAGE, the extracellular domain of the receptor, from Sf9 insect cells or HEK293 cells
Escherichia coli
  defense against the growth and/or dissemination of E. coli: weaker defense against the growth and/or dissemination of E. coli
C1q [1]; 500-fold diluted fresh human serum
  pull-down of C1q from native human serum by immobilized sRAGE: pull-down C1q, effectively
C1q [1]; FIG. 10F, preliminary data, vs human IgG1 (Avastin)
  binding affinity for C1q relative to human IgG: roughly one tenth
C1q [1]; purified C1q 2 μg/ml, anti-C1q:HRP detection
  C1q binding to the two immobilized human forms of sRAGE: comparable binding for C1q
Complement system; C1q-depleted human serum
  complement activation by immobilized protein in C1q-depleted human serum: lost their ability to activate the complement system
Complement system
  complement activation activity relative to Avastin / human IgG1: 1/8
Complement system; listed as RAGE
  complement activation activity relative to Avastin / human IgG1: one eighth; also recorded: RAGE has ⅛ complement activation activity of
Complement system; plate coated 20 μg/ml, fresh human serum, 1 h 37° C.
  complement activation by immobilized protein (C3a): activated the complement system with comparable degrees of activity; also recorded: capable of activating complement systems with comparable activity
Complement system; plate coated 20 μg/ml, fresh human serum, 1 h 37° C., listed as RAGE
  complement activation by immobilized protein (C3a): Immobilized RAGE activates classical complement
Complement system; protein(s) preincubated in PBS then added to fresh human serum (FIG. 13B)
  complement activation in liquid phase: could not activate the complement system
C1q [2]
  pull-down of sRAGE by immobilized C1q: pull-down sRAGE
  C1q-sRAGE binding at reduced ionic strength: greatly enhanced
C1q [2]; listed as RAGE
  C1q-sRAGE binding at reduced ionic strength: RAGE-C1q binding is ionic strength-dependent, as
  pull-down of sRAGE by immobilized C1q: Direct RAGE-C1q binding confirmed by pull-down
[3]
  development of acellular capillaries and pericyte ghosts: suppressed the development of acellular capillaries and pericyte ghosts
  neuronal dysfunction assessed by electroretinography: attenuated neuronal dysfunction
Mac-1
  pull-down by immobilized Mac-1, proteins incubated separately: pulled down
  pull-down by immobilized Mac-1, sRAGE and C1q co-incubated: increased

Entries after “also recorded” stand apart in the source; their conditions may differ.
